Measured values published in paper PMC9694048 (Pharmaceutics, 2022).
Values after ≈ are worked out from the molar mass of the structure shown.

Tested on: P. aeruginosa
Assay: MIC by broth microdilution
Assay type: cell-based
Settings: 35 °C, 24 h, duplicates
Method: The minimum inhibitory concentrations (MIC) of cationic peptides were determined using the broth microdilution method in a 96-well microtiter plate (Cellstar, Greiner Bio-One, Austria). The inoculum was prepared by suspending overnight grown isolated colonies selected from a Tryptic Soy Agar (TSA) plate in water for injection. The concentration of the inoculum suspension was adjusted to match that of the 0.5 McFarland’s standard (10^8 CFU/mL) and further diluted 150-fold by adding 50 μL of suspension into 7.5 mL of Mueller−Hinton broth to obtain an inoculum of 10^5 to 10^6 CFU/mL. Lyophilized peptide obtained from the manufacturer was dissolved in water and adjusted to a final concentration of 0.5 to 256 μg/mL in twofold serial dilutions. A total of 100 μL of the solution was then mixed with an equal volume of bacterial inoculum prepared before in 96-well plates. The plates were then incubated at 35 °C for 24 h, and the optical density at 600 nm (OD600) was determined using a TECAN microplate reader.

SMILES: CC[C@H](C)[C@H](NC(=O)CN)C(=O)NCC(=O)N[C@@H](C)C(=O)N[C@H](C(=O)N[C@@H](CC(C)C)C(=O)N[C@@H](CCCCN)C(=O)N[C@H](C(=O)N[C@@H](CC(C)C)C(=O)N[C@H](C(=O)N[C@H](C(=O)NCC(=O)N[C@@H](CC(C)C)C(=O)N1CCC[C@H]1C(=O)N[C@@H](C)C(=O)N[C@@H](CC(C)C)C(=O)N[C@H](C(=O)N[C@@H](CO)C(=O)N[C@@H](Cc1c[nH]c2ccccc12)C(=O)N[C@H](C(=O)N[C@@H](CCCCN)C(=O)N[C@@H](CCCNC(=N)N)C(=O)N[C@@H](CCCCN)C(=O)N[C@@H](CCCNC(=N)N)C(=O)N[C@@H](CCC(N)=O)C(=O)N[C@@H](CCC(N)=O)C(N)=O)[C@@H](C)CC)[C@@H](C)CC)[C@@H](C)O)[C@@H](C)O)C(C)C)C(C)C [Melittin]
- Minimum inhibitory concentration (strain P. aeruginosa 01 (first line so named, 8th strain of Table S1), Mueller-Hinton broth): 5.6 µM (≈ 15.9 µg/mL)
- Minimum inhibitory concentration (strain P. aeruginosa 01 (second line so named, 12th strain of Table S1), Mueller-Hinton broth): 5.6 µM (≈ 15.9 µg/mL)
- Minimum inhibitory concentration (strain P. aeruginosa 02, Mueller-Hinton broth): 11.2 µM (≈ 31.9 µg/mL)
- Minimum inhibitory concentration (strain P. aeruginosa 03, Mueller-Hinton broth): 5.6 µM (≈ 15.9 µg/mL)
- Minimum inhibitory concentration (strain P. aeruginosa 04, Mueller-Hinton broth): 11.2 µM (≈ 31.9 µg/mL)
- Minimum inhibitory concentration (strain P. aeruginosa 05, Mueller-Hinton broth): 5.6 µM (≈ 15.9 µg/mL)
- Minimum inhibitory concentration (strain P. aeruginosa 06, Mueller-Hinton broth): 2.8 µM (≈ 7.97 µg/mL)
- Minimum inhibitory concentration (strain P. aeruginosa 07, Mueller-Hinton broth): 2.8 µM (≈ 7.97 µg/mL)
- Minimum inhibitory concentration (strain P. aeruginosa 08, Mueller-Hinton broth): 5.6 µM (≈ 15.9 µg/mL)
- Minimum inhibitory concentration (strain P. aeruginosa 09, Mueller-Hinton broth): 2.8 µM (≈ 7.97 µg/mL)
- Minimum inhibitory concentration (strain P. aeruginosa 10, Mueller-Hinton broth): 2.8 µM (≈ 7.97 µg/mL)
- Minimum inhibitory concentration (strain P. aeruginosa 9027, Mueller-Hinton broth): 2.8 µM (≈ 7.97 µg/mL)
- Minimum inhibitory concentration (strain P. aeruginosa 23155, Mueller-Hinton broth): 5.6 µM (≈ 15.9 µg/mL)
- Minimum inhibitory concentration (strain P. aeruginosa 27853, Mueller-Hinton broth): 5.6 µM (≈ 15.9 µg/mL)
